System: M.smegmatis mc^2155
Assay: MIC99 determination, broth macrodilution with CFU plating
Assay type: cell-based
Details: 24 hours, 99% inhibition of growth

Substance: 2-{5-[2,4,6-trinitrophenyl)amino]-1H-tetrazol-1-yl}ethanol
- MIC99 for M.smegmatis: 500 µg/mL
